Experimental data reported in PMC4512758 (Analytical biochemistry, 2015).

Chains of the proteins cited; added tags and fusions are not shown.
UniProt P30536, whole entry: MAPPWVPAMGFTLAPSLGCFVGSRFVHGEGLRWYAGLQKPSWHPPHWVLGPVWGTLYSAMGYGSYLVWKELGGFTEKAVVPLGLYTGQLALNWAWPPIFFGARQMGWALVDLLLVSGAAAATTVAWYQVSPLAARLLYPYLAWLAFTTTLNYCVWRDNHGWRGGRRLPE

Key:
[1] = target: DIPY binding site of TSPO (Homo sapiens, UniProt P30536); assay: Frontal displacement on MMAC-
[2] = target: Translocator protein (TSPO) (Homo sapiens, UniProt P30536); assay: Frontal affinity chromatography; assay type: binding

CCC(C)N(C)C(=O)c1cc2ccccc2c(-c2ccccc2Cl)n1 (centres unmarked) [PK, PK-11195]
pKi [1]: 5.94
pKd [2]: 8.07

pKd, pKi: −log10 of the molar value.
